Measured values published in patent publication US20140058108A1 (SINOXA PHARMA UG, priority 2010, published 2014).

By UniProt entry, the sequences of proteins in these tests, tags left out.
UniProt P50129, whole entry: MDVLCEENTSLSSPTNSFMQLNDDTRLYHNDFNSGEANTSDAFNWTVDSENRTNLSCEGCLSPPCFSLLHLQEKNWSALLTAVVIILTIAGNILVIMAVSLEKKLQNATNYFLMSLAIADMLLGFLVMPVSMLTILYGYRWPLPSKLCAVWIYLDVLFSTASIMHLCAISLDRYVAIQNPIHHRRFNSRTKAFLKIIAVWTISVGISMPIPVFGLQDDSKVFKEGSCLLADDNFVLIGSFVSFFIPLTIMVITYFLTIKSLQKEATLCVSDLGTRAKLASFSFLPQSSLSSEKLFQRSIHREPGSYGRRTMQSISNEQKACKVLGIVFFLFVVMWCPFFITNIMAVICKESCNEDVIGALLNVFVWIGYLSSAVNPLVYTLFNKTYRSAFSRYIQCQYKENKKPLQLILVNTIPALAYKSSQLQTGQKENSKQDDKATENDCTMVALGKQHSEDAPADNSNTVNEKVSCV

Molecular target: T1, 5-HT2A receptors of coronary arteries in pigs (Sus scrofa, UniProt P50129)
T1 construct: 5-HT2A-mediated contraction of the coronary arteries in pigs; from tissue; host or cells: isolated pig coronary artery
Assay: Inhibition of 5-HT2A-mediated, 5-HT-induced contraction of coronary arteries in pigs
Format: cell-based
Conditions: footnote a: pD′2 (non-competitive antagonism)

## CCN(CC)C(=O)N[C@H]1C[C@@H]2c3cccc4[nH]cc(c34)C[C@H]2N(C)C1 [Terguride, trans-dihydrolisuride]
  5-HT2A pD′2 value: 9.43 ± 0.08^a
